In the assay the target is Ryanodine receptor 1 (Homo sapiens, UniProt P21817). The experiment in a line: Binding affinity to RYR1 channels by calcium mobilization assay.

Sequences of proteins named here, by UniProt entry; tags and fusion partners are left off. A change or cut given only in a name is not applied to a line headed by its entry.
UniProt P21817: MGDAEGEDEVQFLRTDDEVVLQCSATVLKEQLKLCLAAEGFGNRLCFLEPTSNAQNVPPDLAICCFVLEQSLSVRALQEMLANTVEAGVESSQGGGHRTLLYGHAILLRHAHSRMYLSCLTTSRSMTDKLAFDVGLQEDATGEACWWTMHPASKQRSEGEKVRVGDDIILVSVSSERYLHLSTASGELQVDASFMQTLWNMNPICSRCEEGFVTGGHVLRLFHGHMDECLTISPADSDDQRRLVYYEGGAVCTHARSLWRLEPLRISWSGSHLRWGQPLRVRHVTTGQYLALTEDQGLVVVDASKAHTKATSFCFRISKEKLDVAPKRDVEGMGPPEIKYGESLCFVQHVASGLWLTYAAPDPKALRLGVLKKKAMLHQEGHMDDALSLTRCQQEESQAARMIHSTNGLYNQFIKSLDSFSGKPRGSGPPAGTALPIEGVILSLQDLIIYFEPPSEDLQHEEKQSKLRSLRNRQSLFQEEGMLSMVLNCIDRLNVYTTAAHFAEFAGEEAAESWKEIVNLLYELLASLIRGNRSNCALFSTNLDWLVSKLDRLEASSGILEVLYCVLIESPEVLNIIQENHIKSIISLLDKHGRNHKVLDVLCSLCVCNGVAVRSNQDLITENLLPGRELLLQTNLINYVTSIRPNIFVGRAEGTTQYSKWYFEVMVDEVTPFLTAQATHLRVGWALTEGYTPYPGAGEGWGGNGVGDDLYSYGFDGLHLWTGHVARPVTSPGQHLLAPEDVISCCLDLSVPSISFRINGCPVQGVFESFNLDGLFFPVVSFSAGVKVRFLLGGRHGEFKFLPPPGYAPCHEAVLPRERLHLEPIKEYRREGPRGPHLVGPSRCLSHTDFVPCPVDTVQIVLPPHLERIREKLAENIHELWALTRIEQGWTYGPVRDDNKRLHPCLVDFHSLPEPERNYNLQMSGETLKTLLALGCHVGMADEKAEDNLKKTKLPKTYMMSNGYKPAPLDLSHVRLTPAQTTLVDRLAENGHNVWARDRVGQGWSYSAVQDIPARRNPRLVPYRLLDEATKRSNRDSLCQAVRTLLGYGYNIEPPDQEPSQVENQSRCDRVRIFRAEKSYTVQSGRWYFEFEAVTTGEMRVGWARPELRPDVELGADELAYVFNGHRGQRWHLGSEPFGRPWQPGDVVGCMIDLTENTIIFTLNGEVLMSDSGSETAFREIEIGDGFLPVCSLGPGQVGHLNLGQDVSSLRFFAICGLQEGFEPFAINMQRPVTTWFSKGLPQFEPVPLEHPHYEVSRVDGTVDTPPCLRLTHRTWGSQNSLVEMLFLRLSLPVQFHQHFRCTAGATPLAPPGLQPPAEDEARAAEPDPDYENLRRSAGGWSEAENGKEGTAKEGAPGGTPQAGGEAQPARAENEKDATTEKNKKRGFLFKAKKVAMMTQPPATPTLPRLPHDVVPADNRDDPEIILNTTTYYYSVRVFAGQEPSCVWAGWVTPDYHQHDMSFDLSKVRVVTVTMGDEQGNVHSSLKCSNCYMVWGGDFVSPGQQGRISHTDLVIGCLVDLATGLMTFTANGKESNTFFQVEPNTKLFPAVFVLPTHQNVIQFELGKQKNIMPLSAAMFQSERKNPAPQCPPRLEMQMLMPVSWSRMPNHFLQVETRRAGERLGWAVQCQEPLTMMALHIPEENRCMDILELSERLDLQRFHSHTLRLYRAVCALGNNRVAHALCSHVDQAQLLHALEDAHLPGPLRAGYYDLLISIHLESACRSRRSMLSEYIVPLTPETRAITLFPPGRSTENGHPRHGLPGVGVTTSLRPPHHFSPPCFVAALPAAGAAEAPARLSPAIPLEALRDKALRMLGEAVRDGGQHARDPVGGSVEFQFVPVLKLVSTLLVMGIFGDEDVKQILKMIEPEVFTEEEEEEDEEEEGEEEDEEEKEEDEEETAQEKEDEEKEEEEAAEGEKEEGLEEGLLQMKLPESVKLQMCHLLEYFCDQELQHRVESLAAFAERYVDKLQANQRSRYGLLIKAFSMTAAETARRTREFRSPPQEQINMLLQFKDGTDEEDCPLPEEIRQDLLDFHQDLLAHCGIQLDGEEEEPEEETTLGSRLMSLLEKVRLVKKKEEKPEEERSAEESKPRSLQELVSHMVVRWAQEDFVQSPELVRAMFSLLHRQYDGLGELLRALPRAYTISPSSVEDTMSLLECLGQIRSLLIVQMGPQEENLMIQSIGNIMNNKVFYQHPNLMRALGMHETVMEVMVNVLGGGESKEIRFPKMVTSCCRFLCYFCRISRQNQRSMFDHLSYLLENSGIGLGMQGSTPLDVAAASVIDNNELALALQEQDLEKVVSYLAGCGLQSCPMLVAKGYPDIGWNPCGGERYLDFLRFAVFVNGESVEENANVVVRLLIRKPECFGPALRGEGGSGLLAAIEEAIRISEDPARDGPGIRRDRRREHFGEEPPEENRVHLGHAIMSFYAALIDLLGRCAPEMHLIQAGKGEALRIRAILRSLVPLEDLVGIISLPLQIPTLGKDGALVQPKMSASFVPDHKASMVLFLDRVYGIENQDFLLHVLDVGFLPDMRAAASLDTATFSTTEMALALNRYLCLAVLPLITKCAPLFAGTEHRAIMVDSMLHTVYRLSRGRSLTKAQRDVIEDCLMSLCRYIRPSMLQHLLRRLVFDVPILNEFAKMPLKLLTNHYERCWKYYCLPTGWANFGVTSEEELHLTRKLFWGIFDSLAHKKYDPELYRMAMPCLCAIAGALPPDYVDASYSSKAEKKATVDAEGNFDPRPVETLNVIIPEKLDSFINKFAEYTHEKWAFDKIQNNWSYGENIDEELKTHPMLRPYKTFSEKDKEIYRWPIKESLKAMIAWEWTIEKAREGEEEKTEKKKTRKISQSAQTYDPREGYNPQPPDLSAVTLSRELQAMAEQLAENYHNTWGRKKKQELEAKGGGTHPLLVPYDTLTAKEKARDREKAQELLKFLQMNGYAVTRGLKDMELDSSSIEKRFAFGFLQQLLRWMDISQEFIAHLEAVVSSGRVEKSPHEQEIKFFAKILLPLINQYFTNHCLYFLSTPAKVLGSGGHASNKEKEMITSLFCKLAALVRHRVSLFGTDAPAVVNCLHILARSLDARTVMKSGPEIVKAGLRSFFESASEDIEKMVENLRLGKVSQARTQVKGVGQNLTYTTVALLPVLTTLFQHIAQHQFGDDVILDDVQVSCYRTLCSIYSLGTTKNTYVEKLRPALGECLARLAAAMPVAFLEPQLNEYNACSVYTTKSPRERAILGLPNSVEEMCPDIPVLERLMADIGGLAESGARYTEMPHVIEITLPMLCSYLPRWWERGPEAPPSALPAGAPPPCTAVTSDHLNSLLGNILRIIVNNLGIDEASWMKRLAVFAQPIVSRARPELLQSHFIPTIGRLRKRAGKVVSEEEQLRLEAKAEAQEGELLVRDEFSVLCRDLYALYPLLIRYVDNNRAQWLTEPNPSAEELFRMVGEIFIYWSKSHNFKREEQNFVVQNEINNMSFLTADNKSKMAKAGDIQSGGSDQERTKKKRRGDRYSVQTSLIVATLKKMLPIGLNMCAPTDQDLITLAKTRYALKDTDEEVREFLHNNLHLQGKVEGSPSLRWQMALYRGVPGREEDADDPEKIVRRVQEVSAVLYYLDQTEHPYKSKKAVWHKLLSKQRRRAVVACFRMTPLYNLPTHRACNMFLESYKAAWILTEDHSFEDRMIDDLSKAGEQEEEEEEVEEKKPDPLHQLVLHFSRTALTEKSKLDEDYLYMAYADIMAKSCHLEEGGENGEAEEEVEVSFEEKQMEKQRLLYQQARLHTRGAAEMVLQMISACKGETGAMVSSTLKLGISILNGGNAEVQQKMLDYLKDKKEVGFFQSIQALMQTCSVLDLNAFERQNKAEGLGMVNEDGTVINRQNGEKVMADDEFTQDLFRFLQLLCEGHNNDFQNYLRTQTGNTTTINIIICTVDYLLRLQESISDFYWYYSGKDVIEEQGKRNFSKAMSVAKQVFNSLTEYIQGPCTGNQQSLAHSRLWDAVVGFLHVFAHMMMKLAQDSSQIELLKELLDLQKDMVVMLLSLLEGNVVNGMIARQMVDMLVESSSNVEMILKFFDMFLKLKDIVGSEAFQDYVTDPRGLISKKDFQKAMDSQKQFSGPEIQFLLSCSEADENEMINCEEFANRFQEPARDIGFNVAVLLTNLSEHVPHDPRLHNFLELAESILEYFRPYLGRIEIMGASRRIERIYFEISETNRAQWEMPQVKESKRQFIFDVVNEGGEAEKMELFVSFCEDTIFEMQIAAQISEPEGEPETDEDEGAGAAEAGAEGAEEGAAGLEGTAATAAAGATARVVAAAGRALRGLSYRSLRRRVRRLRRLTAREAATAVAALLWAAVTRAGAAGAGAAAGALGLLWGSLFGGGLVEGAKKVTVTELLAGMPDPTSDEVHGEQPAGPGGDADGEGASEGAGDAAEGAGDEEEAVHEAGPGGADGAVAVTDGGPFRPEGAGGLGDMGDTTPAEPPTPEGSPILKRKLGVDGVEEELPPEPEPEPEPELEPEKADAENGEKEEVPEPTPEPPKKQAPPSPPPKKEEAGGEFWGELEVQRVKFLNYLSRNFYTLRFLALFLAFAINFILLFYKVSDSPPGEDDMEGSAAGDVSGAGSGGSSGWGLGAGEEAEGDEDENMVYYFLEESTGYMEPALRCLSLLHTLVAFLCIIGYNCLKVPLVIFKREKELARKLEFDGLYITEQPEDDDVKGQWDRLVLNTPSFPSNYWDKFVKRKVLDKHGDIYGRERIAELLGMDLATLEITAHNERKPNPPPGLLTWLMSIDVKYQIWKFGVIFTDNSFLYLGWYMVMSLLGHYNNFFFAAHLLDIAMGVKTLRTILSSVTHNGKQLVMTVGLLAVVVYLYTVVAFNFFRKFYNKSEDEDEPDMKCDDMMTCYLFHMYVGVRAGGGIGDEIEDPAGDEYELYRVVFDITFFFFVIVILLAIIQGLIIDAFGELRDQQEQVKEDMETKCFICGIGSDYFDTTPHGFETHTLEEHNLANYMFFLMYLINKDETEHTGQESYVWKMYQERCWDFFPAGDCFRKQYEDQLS

Turning to `O=C1N/C=C/c2ccc(c(Br)c2)Oc2cc(cc(Br)c2O)CCNC(=O)/C(=N/O)Cc2ccc(c(Br)c2)Oc2cc(cc(Br)c2O)C/C1=N\O`, the EC50 stood at 6.3 µM.

As a reminder, the EC50 is the concentration giving half of the maximal effect.

(Values after ChEMBL document CHEMBL1143439, “Open-chain half-bastadins mimic the effects of cyclic bastadins on calcium homeostasis in cultured neurons” (Bioorg Med Chem Lett, 2008).)
